The species entered for the experiment is Homo sapiens. The experiment is described as follows: Selectivity for human HCN1 over human HCN4.

The source of these data is ChEMBL document CHEMBL1821572, “Discovery of a novel series of selective HCN1 blockers” (Bioorg Med Chem Lett, 2011).

Molecules are shown by their SMILES.

As for `COc1ccccc1C(=O)NCC1(N2CCOCC2)CCCCC1`, the Selectivity ratio came to 10.
